# Laboratory results taken from US20110038796A1, “Method of Nuclear Medical Photography Using Dual-Isotopes” (ATOMIC ENERGY COUNCIL-INSTITUTE OF NUCLEAR ENERGY RESEARCH, priority 2009, published 2011).
# Test system: serotonin transporter
# Assay: SPECT with [^123I]ADAM (single-isotope or dual-isotopes), specific uptake ratio in brain regions
# Type: in vivo, Macaca Cyclopis
# Method: Please refer to FIG. 1, which is a flow view showing a preferred embodiment according to the present disclosure. As shown in the figure, the present disclosure is a method of nuclear medical photography using dual-isotopes, where effect of using dual isotopes on diagnosing anomalies of dopamine and serotonin in primate's brain is evaluated. The present disclosure comprises the following steps: (a) Obtaining control group 11: A control group is obtained, comprising at least one first individual applied with an imaging agent of single-isotope of [^99mTc]TRODAT-1 for dopamine transporter; at least one second individual applied with an imaging agent of single-isotope of [^123I]ADAM for serotonin transporter; and at least one third individual applied with imaging agents of dual-isotopes of [^99mTc]TRODAT-1 and [^123I]ADAM. Therein, the individuals are non-human primates, like Macaca Cyclopis.
# (b) Taking photos for control group 12: Photos of the first to the third individuals in the control group are taken through single photon emission computed tomography (SPECT). Therein, on taking the photo of the first individual applied with the single-isotope of [^99mTc]TRODAT-1, 90 mg/ml of KClO4 is applied to the first individual at first; and, then, after 20 minutes, 740 MBq (20 mCi) of [^99mTc]TRODAT-1 is injected from intravenous. After [^99mTc]TRODAT-1 is injected, a SPECT device equipped with dual-headed gamma cameras (Hawkeye, Millennium VG, General Elecral Medical System, Milwaukee, Wis. USA) coordinated with fan-beam collimators is used to take photos, where 15 dynamic sequence of brain images are taken during 30 minutes (2 min/frame). Therein, an energy window is set between 126 Kev and 154 Kev; data of 128×128 pixel-matrice are fetched; each photo are enlarged for 1.6 times; a photo is taken for each 3° from 360°; and, each of the two detectors is responsible for taking photos for 180°. After data are collected and processed through Metz filter with attenuation calibration, three three-dimensional (3D) photos of coronal, sagittal and transaxial sections are formed. On taking the photo of the second individual applied with the single-isotope of [^123I]ADAM, 185 MBq (5 mCi) of [^123I]ADAM is injected from intravenous; and, an energy window is set between 143 Kev and 175 Kev. On taking the photo of the third individual applied with the dual-isotopes, 90 mg/ml of KClO4 is applied to the […] at first; and, after 20 minutes, 740 MBq (20 mCi) of [^99mTc]TRODAT-1 and 185 MBq (5 mCi) of [^123I]ADAM are injected from intravenous almost simultaneously. Therein, an energy window for [^99mTc]TRODAT-1 is set between 129 Kev and 151 Kev and another energy window for [^123I]ADAM is set between 159 Kev and 175 Kev. […]
smiles,measurement,setting,value
CNCCC(Oc1ccc(C(F)(F)F)cc1)c1ccccc1 (stereo not shown) [fluoxetine],[^123I]ADAM SURs after pretreatment with fluoxetine,"frontal cortex, dual-isotopes, pretreated with fluoxetine for 16 hours",no big change
same,uptake of [^123I]ADAM after pretreatment with fluoxetine,"midbrain, striatum and thalamus, dual-isotopes, 180 to 210 minutes after injection, fluoxetine 20 mg/Tab.",totally blocked
same,uptakes and SURs of [^123I]ADAM after pretreatment with fluoxetine (conclusion),"midbrain, thalamus, striatum and frontal cortex, pretreated with fluoxetine for 16 hours",blocked
same,[^123I]ADAM SURs after pretreatment with fluoxetine,"striatum, thalamus and midbrain, dual-isotopes, pretreated with fluoxetine for 16 hours",lowered
